This is an account of results in article PMC12592420, “A mismatch in enzyme-redox partnerships underlies divergent cytochrome P450 activities between human hepatocytes and microsomes” (Communications Biology, 2025).

Data set [1] in a line: CLint in NADPH-supplemented human liver microsomes. The conditions noted are these: Fig. 4a,d. (In general: Microsomes from liver hold many membrane-bound enzymes, among them those of drug oxidation.)
Another data set has as its system rat hepatocytes. Put plainly: Free fraction in rat hepatocytes as surrogate for HH, equilibrium dialysis. The following applies: fraction unbound, measured or estimated by in silico models of Fuinc.
The nature of data set [2]: Free fraction in HLM incubation, equilibrium dialysis. It counts as in vitro ADME, human. The following applies: fraction unbound, measured or estimated by in silico models of Fuinc.

On to AZ20, for which, in data set [1] (1 µM, single determination), the “HLM_NADPH CLint” value was 22.5 µL/min/mg. The “NADPH_HLM_scaled_CLint,u” value in data set [1] worked out at 31.9737 mL/min/kg. In addition, the fu_ratHH with rat hepatocytes is given as 0.665. Also, in the data set with human hepatocytes (HH), the “HH_scaled_CLint,u” value is listed as 29.9482 mL/min/kg. In addition, in the data set with human hepatocytes (HH) (human), the HH_CLint came to 7.903 uL/min/106 cells. The “Caco-2 Papp” value in the data set with Caco-2 cells was 61.097 10-6 cm/s. Also, the fu_HLM in data set [2] was 0.665.
